Measured values: article PMC12535493, “Assessment of Intramuscular Verapamil as Pharmacological Countermeasure in a Rat Model of Organophosphate DFP-induced Status Epilepticus” (2025)

Tested on: rats
Test: Tolerability of i.m. VPM (pilot doses; distress and discomfort grading)

COc1ccc(CCN(C)CCCC(C#N)(c2ccc(OC)c(OC)c2)C(C)C)cc1OC (stereo not drawn)
Ambulatory deficits (10 mg/kg i.m. b.i.d. 3 days): No ambulatory deficits
Tolerability of pilot doses (10 and 20 mg/kg, i.m., 1 h after DFP-SE, rats (n = 5)): safely tolerated both doses
Distress and discomfort grade (none, mild, moderate, severe) (last day of i.m. injections, 10 mg/kg b.i.d. 3 days, resolved without intervention): Mild discomfort
